Data published in patent US8211933B2, “3.3.0 bicyclic GlyT1 inhibitors and methods of making and using same” (Vanderbilt University, priority 2008, dated 2012).

Target: T1, GlyT1 (Homo sapiens, UniProt P48067)
T1 construct: Human placental choriocarcinoma cells endogenously expressing GlyT1 can be cultured using standard conditions; host or cells: JAR human placental choriocarcinoma cells
T1 sequence (P48067 1-706): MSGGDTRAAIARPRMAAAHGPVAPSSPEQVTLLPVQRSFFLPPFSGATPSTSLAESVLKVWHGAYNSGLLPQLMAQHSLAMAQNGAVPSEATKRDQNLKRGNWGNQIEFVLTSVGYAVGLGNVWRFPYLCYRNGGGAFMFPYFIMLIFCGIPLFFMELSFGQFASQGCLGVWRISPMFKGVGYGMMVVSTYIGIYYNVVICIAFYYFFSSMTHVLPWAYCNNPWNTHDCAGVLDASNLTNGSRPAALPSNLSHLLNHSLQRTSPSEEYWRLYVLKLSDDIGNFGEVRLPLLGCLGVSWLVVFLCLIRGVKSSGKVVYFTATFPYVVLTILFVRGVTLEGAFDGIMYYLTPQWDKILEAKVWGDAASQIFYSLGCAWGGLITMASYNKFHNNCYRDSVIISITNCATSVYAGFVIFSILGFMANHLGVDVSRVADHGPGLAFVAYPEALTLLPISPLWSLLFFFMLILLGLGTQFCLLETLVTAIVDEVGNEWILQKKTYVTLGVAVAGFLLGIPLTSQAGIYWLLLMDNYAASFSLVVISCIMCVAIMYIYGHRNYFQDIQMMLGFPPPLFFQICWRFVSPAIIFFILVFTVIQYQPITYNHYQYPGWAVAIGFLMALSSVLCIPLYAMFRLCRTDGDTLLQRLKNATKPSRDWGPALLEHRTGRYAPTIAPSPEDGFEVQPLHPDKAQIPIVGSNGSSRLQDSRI
Experiment: [14C]-glycine uptake in JAR cells endogenously expressing GlyT1 (Cytostar T scintillation proximity)
Assay type: cell-based
Conditions: inhibition of [14C]-glycine uptake (10 μM), 3 h, read-out: Potency (IC50)
Procedure: Human placental choriocarcinoma cells endogenously expressing GlyT1 can be cultured using standard conditions. Cells can then be grown at 37° C. in a humidified atmosphere 40-48 hours before the assay. Culture medium can be removed from the culture plate, and cells can be incubated with an amount of TBlA buffer with or without the compounds of the present invention for a sufficient period of time. Then an amount of [^14C]-glycine diluted with TBlA can be added to each well. After incubation the microplates can be sealed and counted. Non-specific uptake of [^14C]-glycine can be determined in the presence of unlabeled glycine. To determine potencies, a range of concentrations of the compounds of the present invention can be added to the cells, followed by the fixed concentration of [^14C]-glycine. The concentration of the present compound that inhibited half of the specific uptake of [^14C]glycine (IC50 value) can be determined from the assay data by non-linear curve fitting.
The procedure used was analogous to that disclosed in Williams, J. B.; Mallorga P. J.; Lemaire W.; Williams D. L.; Na S.; Patel S.; Conn J. P.; Pettibone D. J.; Austin C.; Sur C.; “Development of a scintillation proximity assay for analysis of Na+/Cl−-dependent neurotransmitter transporter activity,” ANAL. BIOCHEM.
Cells were plated at a density of 1.3×10^4 cells/well and grown at 37° C. in a humidified atmosphere of 5% CO2 for 40-48 h. […] Cytostar T plates were then incubated in the dark at room temperature for 3 h, sealed with opaque white bottom plate seals (Perkin-Elmer) and clear top plate seals (Topseal A, Perkin-Elmer), and were counted on a Top Count (Packard). Glycine uptake was determined by measuring radioactivity in each well and plotted as a function of concentration of test compound. […] Nonspecific uptake of [^14C]-glycine was determined in the presence of 10 mM cold glycine. […]

Row | IC50 [nM] | SMILES
1 | 617 | Cn1cnc(S(=O)(=O)N2CC3CCC(NC(=O)C4CCCCC4)C3C2)c1 (stereo not drawn) [Compound 7k, N-(2-(1-methyl-1H-imidazol-4-ylsulfonyl)octahydrocyclopenta[c]pyrrol-4-yl) cyclohexanecarboxamide]
2 | 25 | Cn1cnc(S(=O)(=O)N2CC3CCC(NC(=O)c4ccc(Cl)cc4Cl)C3C2)c1 (stereo not drawn) [Compound 7a, 2,4-dichloro-N-(2-(1-methyl-1H-imidazol-4-ylsulfonyl)octahydrocyclopenta[c]pyrrol-4-yl)benzamide]
3 | 34 | Cn1cnc(S(=O)(=O)N2CC3CCC(NC(=O)c4ccc(Cl)cc4Cl)C3C2)c1 (stereo not drawn) [Compound 5c + d, 2,4-dichloro-N-(2-(1-methyl-1H-imidazol-4-ylsulfonyl)octahydrocyclopenta[c]pyrrol-4-yl)benzamide]
